Experimental data: ChEMBL document CHEMBL2385080, “Designing bifunctional NOP receptor-mu opioid receptor ligands from NOP receptor-selective scaffolds. Part I” (2013)

Key:
Mu-type opioid receptor [1] = biological target: T1, Mu-type opioid receptor (Homo sapiens, UniProt P35372); assay: Displacement of [3H]DAMGO from human mu opioid receptor transfected in CHO cells
Nociceptin receptor [2] = biological target: T2, Nociceptin receptor (Homo sapiens, UniProt P41146); assay: Agonist activity at human nociceptin receptor transfected in CHO cells assessed as stimulation of [35S]GTPgammaS binding by liquid scintillation counting analysis
[3] = biological target: T3, Kappa-type opioid receptor (Homo sapiens, UniProt P41145); assay: Agonist activity at human kappa opioid receptor transfected in CHO cells assessed as stimulation of [35S]GTPgammaS binding by liquid scintillation counting analysis
Mu-type opioid receptor [4] = biological target: T1, Mu-type opioid receptor; assay: Agonist activity at human mu opioid receptor transfected in CHO cells assessed as stimulation of [35S]GTPgammaS binding by liquid scintillation counting analysis
Nociceptin receptor [5] = biological target: T2, Nociceptin receptor; assay: Displacement of [3H] N/OFQ from human nociceptin receptor transfected in CHO cells
[6] = biological target: T3, Kappa-type opioid receptor; assay: Displacement of [3H] U69593 from human kappa opioid receptor transfected in CHO cells

Row | SMILES | Ki (Mu-type opioid receptor [1]) [nM] | EC50 (Nociceptin receptor [2]) [nM] | EC50 [3] [µM] | EC50 (Mu-type opioid receptor [4]) [nM] | Ki (Nociceptin receptor [5]) [nM] | Ki [6] [nM]
1 | O=C1Cc2ccccc2N1C1CCN(C2CC[C@H]3CCCc4cccc2c43)CC1 (stereo not given in full) | 79.9 | 46.1 | < 10 | 129 | 11.4 | 681
2 | O=C1Cc2ccccc2N1C1CCN(Cc2ccccc2)CC1 |  |  | < 10 | 1980 |  | 
3 | O=C1Cc2ccccc2N1C1CCN(CC2CCCCC2)CC1 | 533 |  |  |  | 213 | 
4 | O=C1CCc2ccccc2N1C1CCN(C2CCCCCCC2)CC1 | 47 | 101 | < 10 |  | 18.7 | 37.9
